This passage reports Hill coefficient results from patent EP0551434B1 (BOARD OF REGENTS THE UNIVERSITY OF TEXAS SYSTEM, priority 1990, dated 1992).

Sequences of proteins named here, by UniProt entry; tags and fusion partners are left off.
UniProt Q29040, whole entry: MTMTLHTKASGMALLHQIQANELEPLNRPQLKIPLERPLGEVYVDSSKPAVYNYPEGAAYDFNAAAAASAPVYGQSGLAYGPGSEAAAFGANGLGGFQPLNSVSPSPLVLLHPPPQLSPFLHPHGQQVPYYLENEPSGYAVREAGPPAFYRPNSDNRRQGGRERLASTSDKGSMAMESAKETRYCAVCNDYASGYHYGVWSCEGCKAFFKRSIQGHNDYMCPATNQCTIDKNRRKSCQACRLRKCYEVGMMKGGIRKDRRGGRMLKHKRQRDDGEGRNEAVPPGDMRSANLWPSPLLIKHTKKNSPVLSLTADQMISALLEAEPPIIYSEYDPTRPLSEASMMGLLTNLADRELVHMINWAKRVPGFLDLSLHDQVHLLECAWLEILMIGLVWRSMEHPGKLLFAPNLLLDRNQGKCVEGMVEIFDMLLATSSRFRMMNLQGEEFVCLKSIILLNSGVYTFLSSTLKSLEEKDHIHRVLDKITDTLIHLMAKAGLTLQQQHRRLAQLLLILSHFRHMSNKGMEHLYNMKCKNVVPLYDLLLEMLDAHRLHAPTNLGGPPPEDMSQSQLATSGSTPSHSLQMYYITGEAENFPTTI

The test deals with estrogen receptor (Sus scrofa, UniProt Q29040). As to the kind of experiment: Saturation estrogen receptor assay with [^3H]estradiol and Scatchard analysis in pig uterus. Also on record: Uteri cytosol (2 mg protein/tube) were incubated at 4 ° C for 2 h with [^3H]estradiol; from tissue; host or cells: uterus cytosol of immature domestic swine (100,000 g supernatant, charcoal-treated). Particulars: Scatchard analysis. Format: binding.

For [^3H]estradiol, the Hill coefficient amounted to 0.982.
